Laboratory results reported in publication PMC8274062, “Promising Non-cytotoxic Monosubstituted Chalcones to Target Monoamine Oxidase-B” (ACS Medicinal Chemistry Letters, 2021).

What was measured:
[1] = system: A2780 (human ovarian carcinoma cells); test: Cell growth assay (trypan blue), A2780; type: cell-based; settings: A2780, 72 h of incubation
[2] = system: HT-29 (human colorectal adenocarcinoma); test: Cell growth assay (trypan blue), HT-29; type: cell-based; settings: HT-29, 72 h of incubation

O=C(/C=C/c1ccccc1)c1ccc(C(F)(F)F)cc1 [Compound 14]
GI50 [1]: > 20 µM
GI50 [2]: > 20 µM
